Test results from ChEMBL document CHEMBL3886452, “Buprenorphine analogs” (2015).

Amino acid sequences for entries named in this document (tags omitted).
UniProt P41145, whole entry: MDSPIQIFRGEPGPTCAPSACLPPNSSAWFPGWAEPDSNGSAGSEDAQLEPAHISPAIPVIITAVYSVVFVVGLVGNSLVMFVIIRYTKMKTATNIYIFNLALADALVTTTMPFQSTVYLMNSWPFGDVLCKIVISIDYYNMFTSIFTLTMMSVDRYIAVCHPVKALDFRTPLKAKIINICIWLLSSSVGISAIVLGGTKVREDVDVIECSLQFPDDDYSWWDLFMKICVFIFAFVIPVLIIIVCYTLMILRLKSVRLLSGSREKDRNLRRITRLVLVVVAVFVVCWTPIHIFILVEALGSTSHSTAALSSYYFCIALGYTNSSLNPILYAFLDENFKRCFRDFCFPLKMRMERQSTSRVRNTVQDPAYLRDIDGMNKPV
UniProt P41143, whole entry: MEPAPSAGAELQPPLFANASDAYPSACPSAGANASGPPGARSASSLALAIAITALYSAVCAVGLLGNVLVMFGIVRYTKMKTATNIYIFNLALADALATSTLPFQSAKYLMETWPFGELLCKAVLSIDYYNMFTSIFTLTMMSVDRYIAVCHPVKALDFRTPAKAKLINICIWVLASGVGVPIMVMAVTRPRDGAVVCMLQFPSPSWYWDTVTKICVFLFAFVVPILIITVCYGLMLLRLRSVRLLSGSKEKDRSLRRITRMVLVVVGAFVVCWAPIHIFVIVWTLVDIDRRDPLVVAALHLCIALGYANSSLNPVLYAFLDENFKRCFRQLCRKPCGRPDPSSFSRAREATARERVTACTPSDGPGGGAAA
UniProt P35372, whole entry: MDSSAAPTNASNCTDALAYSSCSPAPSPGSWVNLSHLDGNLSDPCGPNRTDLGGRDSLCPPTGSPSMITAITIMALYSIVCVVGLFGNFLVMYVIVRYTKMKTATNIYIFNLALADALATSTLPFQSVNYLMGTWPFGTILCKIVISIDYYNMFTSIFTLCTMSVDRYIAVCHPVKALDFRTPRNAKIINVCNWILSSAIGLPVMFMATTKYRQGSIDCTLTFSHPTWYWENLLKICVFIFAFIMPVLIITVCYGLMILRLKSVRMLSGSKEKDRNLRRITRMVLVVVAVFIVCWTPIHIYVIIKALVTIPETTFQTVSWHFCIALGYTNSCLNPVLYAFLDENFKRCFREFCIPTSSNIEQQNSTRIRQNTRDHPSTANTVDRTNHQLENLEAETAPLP

Experiments:
[1] = molecular target: T1, Kappa-type opioid receptor (Homo sapiens, UniProt P41145); test: Radioligand Dose-Displacement Binding Assay: Radioligand dose displacement assays used 0.4 nM [3H]-U69,593 (GE Healthcare, Piscataway, N.J.; 40 Ci/mmole) with 15 μg membrane protein (recombinant κ opioid receptor expressed in HEK 293 cells; in-house prep) in a final volume of 200 μl binding buffer (5% DMSO, 50 mM Trizma base, pH 7.4). Non-specific binding was determined in the presence of 10 μM un; conditions: sf9
[2] = molecular target: T2, Delta-type opioid receptor (Homo sapiens, UniProt P41143); test: Radioligand Dose-Displacement Binding Assay: Delta-opioid Receptor Binding Assay Procedures were conducted as follows. Radioligand dose-displacement assays used 0.3 nM [3H]-Naltrindole (Perkin Elmer, Shelton, Conn.; 33.0 Ci/mmole) with 5 ug membrane protein (Perkin Elmer, Shelton, Conn.) in a final volume of 500 ul binding buffer (5 mM MgCl2, 5% DMSO, 50 mM Trizma base, pH 7.4). Non-specific bindi
[3] = molecular target: T1, Kappa-type opioid receptor; test: Functional Assay: Functional [35S]GTPgammaS binding assays were conducted as follows. kippa opioid receptor membrane solution was prepared by sequentially adding final concentrations of 0.026 ug/ul kippa membrane protein (in-house), 10 ug/mL saponin, 3 uM GDP and 0.20 nM [35S]GTPgammaS to binding buffer (100 mM NaCl, 10 mM MgCl2, 20 mM HEPES, pH 7.4) on ice. The prepared membrane solution (190 ul/
[4] = molecular target: T2, Delta-type opioid receptor; test: Functional Assay: Functional [35S]GTPgammaS binding assays were conducted as follows. Delta opioid receptor membrane solution was prepared by sequentially adding final concentrations of 0.026 ug/ul delta membrane protein (Perkin Elmer, Shelton, Conn.), 10 ug/mL saponin, 3 uM GDP and 0.20 nM [35S]GTPgammaS to binding buffer (100 mM NaCl, 10 mM MgCl2, 20 mM HEPES, pH 7.4) on ice. The prepared membra
Mu-type opioid receptor [5] = molecular target: T3, Mu-type opioid receptor (Homo sapiens, UniProt P35372); test: Functional Assay: [35S]GTPgammaS functional assays were conducted using freshly thawed u-receptor membranes (Perkin Elmer, Shelton, Conn.). Assay reactions were prepared by sequentially adding the following reagents to binding buffer (100 mM NaCl, 10 mM MgCl2, 20 mM HEPES, pH 7.4) on ice (final concentrations indicated): membrane protein (0.026 mg/mL), saponin (10 mg/mL), GDP (3 mM) and [35S]GTPga
Mu-type opioid receptor [6] = molecular target: T3, Mu-type opioid receptor; test: Radioligand Dose-Displacement Binding Assay: Radioligand dose-displacement binding assays for t-opioid receptors used 0.3 nM [3H]-diprenorphine (Perkin Elmer, Shelton, Conn.), with […] membrane protein/well in a final volume of 500 ul binding buffer (10 mM MgCl2, 1 mM EDTA, 5% DMSO, 50 mM HEPES, pH 7.4). Reactions were carried out in the absence or presence of increasing concentrations of unlabel
[7] = molecular target: T1, Kappa-type opioid receptor; conditions: sf9

SMILES | Ki [1] [nM] | Ki [2] [nM] | EC50 [3] [nM] | EC50 [4] [nM] | EC50 (Mu-type opioid receptor [5]) [nM] | Ki (Mu-type opioid receptor [6]) [nM] | Ki [7] [nM]
CO[C@]12CC[C@@]3(C[C@@H]1COC(=O)[C@@H](N)Cc1ccccc1)[C@H]1Cc4ccc(O)c5c4[C@@]3(CCN1CC1CC1)[C@H]2O5 | 0.07 |  |  |  |  |  | 
CCCc1cc(COC[C@H]2C[C@@]34CC[C@]2(OC)[C@@H]2Oc5c(OC)ccc6c5[C@@]23CCN(C)[C@@H]4C6)on1 |  | 3620 |  |  |  |  | 
CO[C@]12CC[C@@]3(C[C@@H]1COCc1ccccc1)[C@H]1Cc4ccc(NS(C)(=O)=O)c5c4[C@@]3(CCN1C)[C@H]2O5 |  | 743 | 70.7 | 482 |  |  | 
CO[C@]12CC[C@@]3(C[C@@H]1COCc1ccccc1)[C@H]1Cc4ccc(F)c5c4[C@@]3(CCN1CC1CC1)[C@H]2O5 | 0.02 |  |  | 66.5 |  |  | 
COc1ccc2c3c1O[C@H]1[C@@]4(OC)CC[C@@]5(C[C@@H]4CN(Cc4ccccc4)S(C)(=O)=O)[C@@H](C2)N(CC2CC2)CC[C@]315 |  | 729 | 80.5 | 151 | 114 | 19.4 | 
COc1ccc2c3c1O[C@H]1[C@@]4(OC)CC[C@@]5(C[C@@H]4COCc4ccccc4)[C@@H](C2)N(CC2CC2)CC[C@]315 | 0.09 | 15 |  | 14.7 | 10.8 |  | 
CC[C@H](C)[C@H](N)C(=O)OC[C@H]1C[C@@]23CC[C@]1(OC)[C@@H]1Oc4c(OC)ccc5c4[C@@]12CCN(CC1CC1)[C@@H]3C5 |  |  | 66.4 |  |  | 5.42 | 
COCCOCCOCCOc1ccc2c3c1O[C@H]1[C@@]4(OC)CC[C@@]5(C[C@@H]4COCc4ccccc4)[C@@H](C2)N(CC2CC2)CC[C@]315 |  | 25.4 |  | 57.2 | 53.1 |  | 
COCCOCCOCCOCCOCCOc1ccc2c3c1O[C@H]1[C@@]4(OC)CC[C@@]5(C[C@@H]4COCc4ccccc4)[C@@H](C2)N(CC2CC2)CC[C@]315 | 10.1 | 270 |  |  | 265 |  | 
CCOC(=O)CC[C@H]1[C@H](COCc2ccccc2)[C@@]23CC[C@]1(OC)[C@@H]1Oc4c(OC)ccc5c4[C@@]12CCN(CC1CC1)[C@@H]3C5 |  |  |  |  | 186 | 24.4 | 
C=Cc1ccc2c3c1O[C@H]1[C@@]4(OC)CC[C@@]5(C[C@@H]4COCc4ccccc4)[C@@H](C2)N(C)CC[C@]315 | 0.23 | 174 |  | 189 |  |  | 
COc1ccc2c3c1O[C@H]1[C@@]4(OC)CC[C@@]5(C[C@@H]4COCc4cccc(NC(N)=O)c4)[C@@H](C2)N(CC2CC2)CC[C@]315 |  | 63 | 53.5 | 22 |  | 29.3 | 
CO[C@]12CC[C@@]3(C[C@@H]1COCc1ccccc1)[C@H]1Cc4ccc(OCC(N)=O)c5c4[C@@]3(CCN1CC1CC1)[C@H]2O5 |  | 166 |  | 66.2 | 12.3 |  | 
COCCOCCOCCO[C@]12CC[C@@]3(C[C@@H]1COCc1ccccc1)[C@H]1Cc4ccc(OC)c5c4[C@@]3(CCN1CC1CC1)[C@H]2O5 |  |  |  |  | 137 | 7.79 | 
CO[C@]12CC[C@@]3(C[C@@H]1COCc1ccccc1C)[C@H]1Cc4ccc(OCCO)c5c4[C@@]3(CCN1C)[C@H]2O5 |  | 32.2 | 3.94 | 22.2 |  |  | 
COc1ccc2c3c1O[C@H]1[C@@]4(OC)CC[C@@]5(C[C@@H]4CNCc4ccccc4)[C@@H](C2)N(CC2CC2)CC[C@]315 | 0.04 | 494 | 8.42 | 526 | 50.4 |  | 
COc1ccc2c3c1O[C@H]1[C@@]4(OC)CC[C@@]5(C[C@@H]4COC(=O)[C@@H](N)Cc4ccccc4)[C@@H](C2)N(CC2CC2)CC[C@]315 |  |  | 82.3 | 57.6 |  |  | 
CO[C@]12CC[C@@]3(C[C@@H]1COCc1ccccc1)[C@H]1Cc4ccc(O)c5c4[C@@]3(CCN1)[C@H]2O5 | 0.08 |  |  |  |  |  | 
COc1ccc2c3c1O[C@H]1[C@@]4(OC)CC[C@@]5(C[C@@H]4COCc4ccccc4)[C@@H](C2)NCC[C@]315 | 0.08 | 342 |  | 176 |  |  | 
COc1ccc2c3c1O[C@H]1[C@@]4(OC)CC[C@@]5(C[C@@H]4C(C)(C)OCc4ccccc4)[C@@H](C2)N(CC2CC2)CC[C@]315 |  |  | 0.28 |  |  |  | 

SMILES | Ki [1] [nM] | Ki [2] [nM] | EC50 [3] [nM] | EC50 [4] [nM] | EC50 (Mu-type opioid receptor [5]) [nM] | Ki (Mu-type opioid receptor [6]) [nM] | Ki [7] [nM]
CO[C@]12CC[C@@]3(C[C@@H]1COCc1ccccc1)[C@H]1Cc4ccc(N)c5c4[C@@]3(CCN1C)[C@H]2O5 |  | 411 | 40.4 |  |  |  | 0.28
CC[C@H](C)[C@H](N)C(=O)OC[C@H]1C[C@@]23CC[C@]1(OC)[C@@H]1Oc4c(O)ccc5c4[C@@]12CCN(CC1CC1)[C@@H]3C5 |  |  |  |  | 5.04 |  | 
CO[C@]12CC[C@@]3(C[C@@H]1COCc1ccccc1)[C@H]1Cc4ccc(F)c5c4[C@@]3(CCN1C)[C@H]2O5 |  | 92.5 | 22.7 | 67.8 |  |  | 
COc1ccc2c3c1O[C@H]1[C@@]4(OC)CC[C@@]5(C[C@@H]4CS(=O)(=O)Cc4ccccc4)[C@@H](C2)N(CC2CC2)CC[C@]315 |  |  | 88.8 |  | 160 | 7.29 | 
CO[C@]12CC[C@@]3(C[C@@H]1COCc1ccccc1)[C@H]1Cc4ccc(C(N)=O)c5c4[C@@]3(CCN1C)[C@H]2O5 |  | 185 | 13.3 | 86 |  |  | 
COc1ccc2c3c1O[C@H]1[C@@]4(OC)CC[C@@]5(C[C@@H]4COc4ccc(-n6ccnc6)cc4)[C@@H](C2)N(CC2CC2)CC[C@]315 | 31.2 | 211 |  | 5620 |  | 15.8 | 
COc1ccc2c3c1O[C@H]1[C@@]4(O)CC[C@@]5(C[C@@H]4COCc4ccccc4)[C@@H](C2)N(CC2CC2)CC[C@]315 |  |  |  |  | 50.3 |  | 
COc1ccc2c3c1O[C@H]1[C@@]4(OC)CC[C@@]5(C[C@@H]4COC(=O)[C@@H](N)CC(C)C)[C@@H](C2)N(CC2CC2)CC[C@]315 |  | 151 | 41.8 |  | 96.5 |  | 
COc1ccc2c3c1O[C@H]1[C@@]4(OC)CC[C@@]5(C[C@@H]4CSc4nncs4)[C@@H](C2)N(C)CC[C@]315 | 462 |  |  |  |  | 3390 | 
COCCOCCOCCOCCOCCO[C@]12CC[C@@]3(C[C@@H]1COCc1ccccc1)[C@H]1Cc4ccc(OC)c5c4[C@@]3(CCN1CC1CC1)[C@H]2O5 |  |  |  |  | 137 |  | 
COc1ccc2c3c1O[C@H]1[C@@]4(OC)CC[C@@]5(C[C@@H]4CN(Cc4ccccc4)C(C)=O)[C@@H](C2)N(CC2CC2)CC[C@]315 |  | 387 |  | 128 | 22.1 | 11.8 | 
CO[C@]12CC[C@@]3(C[C@@H]1COc1ccc(-n4ccnc4)cc1)[C@H]1Cc4ccc(O)c5c4[C@@]3(CCN1CC1CC1)[C@H]2O5 | 0.09 |  |  | 6060 |  |  | 
COc1ccc2c3c1O[C@H]1[C@@]4(OC)CC[C@@]5(C[C@@H]4C[S+]([O-])Cc4ccccc4)[C@@H](C2)N(CC2CC2)CC[C@]315 (some centres undefined) |  | 381 |  | 231 | 50.4 |  | 
COc1ccc2c3c1O[C@H]1[C@@]4(OC)CC[C@@]5(C[C@@H]4CSCc4ccccc4)[C@@H](C2)N(CC2CC2)CC[C@]315 |  | 81.9 |  | 176 |  |  | 
CO[C@]12CC[C@@]3(C[C@@H]1COCc1ccccc1)[C@H]1Cc4ccc(OCc5nn[nH]n5)c5c4[C@@]3(CCN1CC1CC1)[C@H]2O5 |  | 470 | 30.4 | 410 | 59.9 |  | 
COC(=O)COc1ccc(COC[C@H]2C[C@@]34CC[C@]2(OC)[C@@H]2Oc5c(OC)ccc6c5[C@@]23CCN(CC2CC2)[C@@H]4C6)cc1 | 12.1 |  |  |  |  | 19 | 
COc1ccc2c3c1O[C@H]1[C@@]4(c5ccccc5)CC[C@@]5(C[C@@H]4COCc4ccccc4)[C@@H](C2)N(CC2CC2)CC[C@]315 |  |  | 14.6 |  | 23.5 | 13.1 | 
CCOC(=O)CC[C@H]1[C@H](COCc2ccccc2)[C@]2(OC)CC[C@]13[C@H]1Cc4ccc(OC)c5c4[C@@]3(CCN1CC1CC1)[C@H]2O5 |  |  | 1830 |  | 3700 | 15.1 | 
CO[C@]12CC[C@@]3(C[C@@H]1COCc1cc4ccccc4s1)[C@H]1Cc4ccc(OCCO)c5c4[C@@]3(CCN1CC1CC1)[C@H]2O5 |  |  | 7.62 | 8110 | 3230 | 6.29 | 
